Results reported in patent US12570607B2, “Compound as cyclin-dependent kinase 9 inhibitor and use thereof” (CSPC Zhongqi Pharmaceutical Technology (Shijiazhuang) Co., …, priority 2019, dated 2026).

Amino acid sequences for entries named in this document (tags omitted).
UniProt Q12809, whole entry: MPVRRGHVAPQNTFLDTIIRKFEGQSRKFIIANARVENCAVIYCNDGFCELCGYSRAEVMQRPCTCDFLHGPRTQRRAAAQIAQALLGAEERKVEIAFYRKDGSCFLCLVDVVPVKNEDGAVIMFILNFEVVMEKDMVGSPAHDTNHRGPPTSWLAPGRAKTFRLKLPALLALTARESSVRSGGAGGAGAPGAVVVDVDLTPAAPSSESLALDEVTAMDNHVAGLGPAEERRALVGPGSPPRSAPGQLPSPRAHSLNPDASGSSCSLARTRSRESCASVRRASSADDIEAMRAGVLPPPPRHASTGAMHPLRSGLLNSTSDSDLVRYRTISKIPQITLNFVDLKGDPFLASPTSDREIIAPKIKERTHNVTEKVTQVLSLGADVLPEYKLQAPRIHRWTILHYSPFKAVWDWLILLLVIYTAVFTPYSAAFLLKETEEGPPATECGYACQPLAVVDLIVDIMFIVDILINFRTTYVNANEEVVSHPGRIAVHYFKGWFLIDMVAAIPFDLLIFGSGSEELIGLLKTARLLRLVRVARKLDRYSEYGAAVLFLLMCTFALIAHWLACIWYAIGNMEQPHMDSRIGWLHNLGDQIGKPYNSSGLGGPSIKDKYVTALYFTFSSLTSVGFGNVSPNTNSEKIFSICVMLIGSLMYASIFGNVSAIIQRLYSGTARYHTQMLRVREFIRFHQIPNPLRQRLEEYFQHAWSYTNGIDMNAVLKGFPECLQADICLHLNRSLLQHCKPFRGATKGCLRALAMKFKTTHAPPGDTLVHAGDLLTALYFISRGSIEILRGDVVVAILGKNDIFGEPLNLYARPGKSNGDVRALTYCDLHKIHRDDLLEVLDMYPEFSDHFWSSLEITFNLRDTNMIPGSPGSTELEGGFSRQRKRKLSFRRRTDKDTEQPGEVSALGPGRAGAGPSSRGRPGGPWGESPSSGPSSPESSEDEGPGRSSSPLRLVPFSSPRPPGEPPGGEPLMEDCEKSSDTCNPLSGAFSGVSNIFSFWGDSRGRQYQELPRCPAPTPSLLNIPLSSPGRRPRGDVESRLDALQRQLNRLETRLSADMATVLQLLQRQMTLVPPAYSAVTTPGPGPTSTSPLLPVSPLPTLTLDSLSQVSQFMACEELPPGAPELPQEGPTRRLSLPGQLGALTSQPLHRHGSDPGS

Assays:
[1] = target: hERG channel (Homo sapiens (Human), UniProt Q12809)
[2] = tested on: MV4;11 cells; test: In vitro MV4;11 cell proliferation inhibition (MTT method); settings: read-out: IC50 cell proliferation inhibition

Row | SMILES | IC50 [1] | IC50 [2]
1 | COc1cc(Cl)ccc1-c1cc(NC(=O)[C@H]2CCC[C@@H](NC(C)=O)C2)ncc1F | > 30 µM | 
2 | CCOc1cc(F)ccc1-c1cc(NC(=O)[C@H]2CCC[C@@H](NC(C)=O)C2)ncc1F | > 30 µM | 0.043 µM
